miR-21 reporter = miR-21 reporter, rising signal; HeLa miR-21 FLuc reporter, luciferase, 48 h; Potency, µM (titrated, usually from 38.3 µM), without a hit: top-dose reporter change, positive = more light; AID 2288; 340,000 tested, under 10 active; active = well fitted rising curve with a large enough effect; inconclusive = small, poorly fitted or top-dose-only effect; inactive = no such curve, though single readings can be large or run the other way;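 further: % of control where 0% means no effect; miR-21 action dims this reporter so a rising signal means less miR-21 action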
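Using DMEM plus 10% FBS, HeLa miR-21-FLuc cells are incubated with test compounds (final up to about 40uM) for 48 hours; firefly luciferase signal is then imaged following reagent-mediated lysis.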
Nrf2 ARE act = activators of Nrf2 (ARE) signaling; Potency, µM (top dose mostly 46.1 µM), for inactives: at the top dose activation, hits mostly activators; AREc32 ARE-luciferase reporter (MCF7-derived line), luminescence, 24 h; AID 624171; 410,000 tested, 0.31% active; note: potency is the fitted concentration of half-maximal effect; % of control where 0% means no effect; nearly all actives have a fitted effect of over 65% in size
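Each well held 1000 AREc32 cells, which were incubated with compound for 24 hr at 37 deg C after overnight attachment, and ARE reporter activity was quantified by firefly luciferase luminescence.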
B2AR arrestin = beta2AR (human) beta-arrestin recruitment activity; Potency, µM (series often up to 46.1 µM), for the others: at the highest dose activation, usual class: activators; P07550; 330,000 tested, 0.02% active; beta-arrestin recruitment to beta2AR, cell-based reporter;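 note: potency is the fitted concentration of half-maximal effect; 0% = DMSO controls and full agonism = EC100 isoproterenol or metaproterenol; nearly all actives have a fitted effect of over 65% in size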
A549 tox = kills or reduces viability of A549 cells in Nrf2 counter-screen; A549 ARE-Fluc cells, CellTiter-Fluor viability, 18-24 h; Potency, µM (top dose mostly 46 µM), inactives show at the highest dose activity change, negative = cytotoxicity, most hits filed as inhibitors; 390,000 tested, 0.16% active; AID 504648; note: potency is the fitted concentration of half-maximal effect; % is set by controls: 0 for no effect and ±100 for the full control effect
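A549 ARE_Fluc cells in 5% FBS OPTI-MEM were exposed to compounds in concentration-response for 18-24 h at 37 deg C. Viability was read by CellTiter-Fluor fluorescence (Ex 405/Em 525) after 30 min, before the luciferase read.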
Nrf2 block = inhibitors of Nrf2 signaling; A549 ARE-Fluc reporter, luciferase luminescence, 18-24 h; Potency, µM (top dose mostly 46 µM), for inactives: at the top dose activity change, negative = inhibition, actives largely listed as inhibitors; 360,000 tested, 2.1% active; AID 504444; note: potency is the fitted concentration of half-maximal effect; % is set by controls: 0 for no effect and ±100 for the full control effect; nearly all actives have a fitted effect of over 60% in size
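Concentration-response testing used A549 ARE_Fluc cells at 5000 cells/well. Following an 18-24 h compound incubation, viability was read by fluorescence (Ex 405/Em 525) and luciferase output by luminescence.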
Numbers without * were called inactive; ? = inconclusive; · = not tested or not shown. The list is not random: actives were taken first. Their share in the collection is about 2.2%. Calls come from the whole dose curve; as a rule, active = well fitted curve in the direction sought with a large enough effect; inconclusive = small, poorly fitted or top-dose-only effect, or another doubt; inactive = no such curve, though single readings can be large; an effect the other way counts as inactive or inconclusive.

Compound	B2AR arrestin	A549 tox	Nrf2 ARE act	Nrf2 block	miR-21 reporter
CC(=O)c1ccc(N2CCN(C(=O)CCCc3nc4ccccc4s3)CC2)cc1	1%	3%	2%	15µM*	-10%
Cc1cccc(-n2cc(-c3ccccc3)c3c(NC(C)C)ncnc32)c1	·	6%	4%	·	0%
CCNC(=O)c1cccc(NC(=O)c2cc(C3CC3)nc3c2cnn3C(C)C)c1	-4%	-11%	0%	18µM*	·
CC(C)n1ncc2c(C(=O)Nc3cccc(C#N)c3)cc(C3CC3)nc21	0%	?	0%	?	·
Cc1nn(C)c2c1c(-c1ccccc1)cc(=O)n2C(C)C(=O)NCCc1ccc(Cl)cc1 (stereo unspecified)	·	-1%	8%	?	-4%
c1coc(CSc2ncnc3c2oc2ccccc23)c1	-1%	2%	4.5µM*	?	-39%
c1ccc(CSc2ncnc3c2oc2ccccc23)cc1	·	-4%	0%	?	·
O=C(c1ccc2c(=O)n(CC3CCCO3)c(=S)[nH]c2c1)N1CCN(C(=O)c2ccco2)CC1 (stereo unspecified)	·	9%	·	-1%	·
CCOc1ccccc1NS(=O)(=O)c1ccc2c(c1)CC(C)N2C(=O)C1CC1 (stereo unspecified)	·	0%	0%	?	4%
COc1ccc(C2C=C(c3ccc(Br)cc3)Nc3nnnn32)c(OC)c1 (stereo unspecified)	·	-5%	5%	15µM*	-40%
COc1ccccc1C1C=C(c2ccccc2)Nc2nnnn21 (stereo unspecified)	0%	-19%	11%	?	0%
Cc1cc(C)c(-c2csc(NC(=O)/C=C/c3cccs3)n2)c(C)c1	0%	-16%	3%	23µM*	?
COc1cc2c(cc1NC(=O)CSc1nc3ccccc3[nH]1)oc1ccccc12	0%	?	9%	18µM*	10%
S=C1Nc2ccccc2CS1	·	·	3%	·	·
S=C1Cc2ccccc2N1	-1%	16µM*	-1%	12µM*	?
Cc1ccc(CN2CCSc3ccc(C(=O)N4CCN(c5ccc(Cl)cc5)CC4)cc32)cc1	·	1%	1%	-22%	-1%
CCOC(=O)C1CCCN(Cc2nc(N)nc(Nc3ccc(Cl)cc3)n2)C1 (stereo unspecified)	0%	-18%	0%	26µM*	19%
CCOC(=O)C1CCCN(Cc2nc(N)nc(Nc3ccc(OC)cc3)n2)C1 (stereo unspecified)	0%	-1%	-1%	?	2%
CCOC(=O)c1c(NC(NC(=O)C(C)C)C(Cl)(Cl)Cl)sc2c1CCC2 (stereo unspecified)	-2%	?	2%	23µM*	30%
CC(=O)N1N=C(c2ccc(C)cc2)CC1c1cn(-c2ccccc2)nc1-c1cccs1 (stereo unspecified)	·	6%	0%	-16%	-4%
Clc1ccc(Cn2c(-c3cccnc3Cl)nc3ccccc32)c(Cl)c1	0%	?	2%	18µM*	-9%
Clc1ccc(Cn2c(-c3cccnc3Cl)nc3ccccc32)cc1	-1%	0%	0%	-20%	-7%
O=[N+]([O-])c1cc(C(F)(F)F)ccc1N1CCN(S(=O)(=O)c2ccc3c(c2)CCCC3)CC1	0%	-19%	0%	15µM*	-8%
CC(=O)N(c1ccc(Cl)cc1)C1SC(=O)N(c2ccccc2)C1=O (stereo unspecified)	·	-1%	·	0%	·

Arranged by value in miR-21 reporter (rising): some entries from above.
Structure	B2AR arrestin	Nrf2 ARE act	miR-21 reporter
Clc1ccc(Cn2c(-c3cccnc3Cl)nc3ccccc32)c(Cl)c1	0%	2%	-9%
Clc1ccc(Cn2c(-c3cccnc3Cl)nc3ccccc32)cc1	-1%	0%	-7%
CC(=O)N1N=C(c2ccc(C)cc2)CC1c1cn(-c2ccccc2)nc1-c1cccs1 (stereo unspecified)	·	0%	-4%

Continued.
Compound	B2AR arrestin	A549 tox	Nrf2 ARE act	Nrf2 block	miR-21 reporter
Cc1cc(C)c2c(N)c(C(=O)c3ccc(Br)cc3)oc2n1	0%	1%	1.8µM*	17%	-12%
Cc1cc(C)c2c(N)c(C(=O)c3ccccc3)oc2n1	·	-7%	0%	2%	0%
O=S(=O)(c1ccc2c(c1)OCCO2)N1CCN(S(=O)(=O)c2cccc(Cl)c2F)CC1	·	3%	·	13%	·
CCN(CC)C(=O)CSc1nc(N)c(C#N)c(-c2cccs2)c1C#N	0%	1%	4%	-18%	-16%
CCN(CC)C(=O)CSc1nc(-c2cccs2)cc(-c2cccs2)c1C#N	0%	-20%	0%	18µM*	2%
O=C(NCc1ccc2c(c1)OCO2)c1ccc2c(c1)N(Cc1cccc(Cl)c1)C(=O)c1ccccc1S2=O (stereo unspecified)	·	5%	0%	·	-1%
COc1ccc(-n2c(C)cc(C(=O)COC(=O)c3ccc(O)cc3O)c2C)cc1	0%	?	-1%	13µM*	·
Cc1c(Cl)cccc1NS(=O)(=O)c1cc2c(cc1F)NC(=O)CC2	·	-3%	·	?	·
O=c1[nH]c2cc([N+](=O)[O-])c(NCCO)c([N+](=O)[O-])c2[nH]1	0%	13µM*	1%	-13%	-29%
O=S(=O)(c1ccc(F)cc1)N1CCN(c2nc(-c3cccc(Br)c3)nc3ccccc23)CC1	·	-1%	·	-12%	·
CCOC(=O)[C@H]1[C@H]2COc3ccc(Br)cc3[C@H]2N2C(=O)CN(Cc3ccc(Cl)cc3)C(=O)[C@@]12C	·	-12%	5%	26µM*	·
Cc1ccccc1NC(=O)Cn1c(SCC(=O)Nc2ccc(F)cc2)nc2ccccc21	·	-7%	1%	·	-1%

Fetched by compound from above, three records:
Compound	B2AR arrestin	A549 tox	Nrf2 ARE act	Nrf2 block	miR-21 reporter
O=C(NCc1ccc2c(c1)OCO2)c1ccc2c(c1)N(Cc1cccc(Cl)c1)C(=O)c1ccccc1S2=O (stereo unspecified)	·	5%	0%	·	-1%
CCN(CC)C(=O)CSc1nc(-c2cccs2)cc(-c2cccs2)c1C#N	0%	-20%	0%	18µM*	2%
COc1ccc(-n2c(C)cc(C(=O)COC(=O)c3ccc(O)cc3O)c2C)cc1	0%	?	-1%	13µM*	·

Further records follow:
Compound	B2AR arrestin	A549 tox	Nrf2 ARE act	Nrf2 block	miR-21 reporter
COc1cc(CN2CCc3ccccc3C2)ccc1O	0%	-10%	5%	7.3µM*	?
Oc1ccc(CN2CCc3ccccc3C2)c2cccnc12	·	·	3%	5.8µM*	?
Oc1ccc(CN2CCCCC2)c2cccnc12	0%	?	0%	?	?
COc1cc(CN2CCc3ccccc3C2)cc([N+](=O)[O-])c1O	-1%	-10%	0%	2%	-3%
C=CCn1c(C)cc(C(=O)Cn2nc(C(=O)O)c3ccccc3c2=O)c1C	-1%	-1%	4%	15µM*	-40%
COCCn1c(C)cc(C(=O)Cn2nc(C(=O)O)c3ccccc3c2=O)c1C	0%	2%	7%	?	-1%
COc1ccc(NC(=O)Nc2nnc(N3CCCCCC3)s2)c(OC)c1	·	0%	1%	?	-1%
O=S(=O)(c1cc(F)ccc1F)N1CCN(c2ncnc3ccccc23)CC1	-1%	-18%	0%	12µM*	·
O=S(=O)(c1cc(F)ccc1F)N1CCN(c2ccccn2)CC1	0%	1%	0%	-2%	-6%
CCN(Cc1ccccc1)C(=O)c1cc(-c2ccc(OC)c(OC)c2)nc2ccccc12	0%	-11%	4%	-11%	-6%
COCCN(Cc1ccccc1)C(=O)c1cc(-c2ccc(OC)c(OC)c2)nc2ccccc12	0%	?	8%	18µM*	5%
CN(C1=NC(=O)C(CC(=O)Nc2ccc(Br)cc2)S1)c1ccc(O)cc1 (stereo unspecified)	0%	-14%	0%	23µM*	4%
O=[N+]([O-])c1ccc(/C=N/N=C/c2ccc([N+](=O)[O-])o2)o1	0%	21µM*	4µM*	?	?

Compound activity from PubChem BioAssay.
